We go through 62 compounds from PubChem BioAssay AID2675 (National Center for Advancing Translational Sciences (NCATS), 2010).

By UniProt entry, the sequences of proteins in these tests, tags left out.
UniProt Q9NR56, whole entry: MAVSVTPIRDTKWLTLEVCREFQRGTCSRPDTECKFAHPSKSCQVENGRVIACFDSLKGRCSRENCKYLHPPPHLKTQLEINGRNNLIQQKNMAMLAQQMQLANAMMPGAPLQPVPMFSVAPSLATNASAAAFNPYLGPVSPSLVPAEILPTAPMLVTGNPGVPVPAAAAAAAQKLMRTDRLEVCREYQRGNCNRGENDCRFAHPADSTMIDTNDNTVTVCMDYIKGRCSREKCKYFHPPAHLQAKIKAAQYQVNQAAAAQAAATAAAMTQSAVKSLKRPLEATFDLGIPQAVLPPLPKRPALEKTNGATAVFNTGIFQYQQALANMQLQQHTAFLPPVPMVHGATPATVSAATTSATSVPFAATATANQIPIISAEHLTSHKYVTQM

Structures are written as SMILES. The list shows a part of the results, in another mix than the full data. Records with an inconclusive call do not appear. Activity calls are given as the source filed them. Calls come from the whole dose curve; as a rule, active = well fitted inhibition curve with a large enough effect in the signal ratio, with a control signal flat (not every such curve was filed as active); inconclusive = small, poorly fitted or top-dose-only effect, or effect the other way, or a change in a side signal; inactive = no such curve, though single readings can be large or run the other way; the % refers to the signal ratio.
% is set by controls: 0 for no effect and ±100 for the full control effect.

In the experiment the target is Muscleblind-like protein 1 (Homo sapiens) (UniProt Q9NR56). Briefly: qHTS Assay for Inhibitors of MBNL1-poly(CUG) RNA binding. To be noted: TR-FRET MBNL1-His/biotin-(CUG)12 binding, 665/545 ratio; at 57.5 µM (top of the series) unless noted. (In qHTS, concentration-response curves come from the screen itself.)
For the compound `Cc1cc(C)cc(OP(C)(=O)Nc2ccc(C)cc2C)c1` (configuration not stated), the activity change, negative = inhibition is inactive: -13.5%.

With `COc1ccccc1OP(C)(=O)Nc1cccc(Br)c1` (configuration not stated), the activity change, negative = inhibition is inactive: -1.36%.

With `Cc1cc(C)cc(OP(C)(=O)Nc2ccccn2)c1` (configuration not stated), the activity change, negative = inhibition is inactive: 3.93%.

As for `CP(=O)(Nc1cccc(Br)c1)Oc1ccccc1` (configuration not stated), the activity change, negative = inhibition was inactive: -9.75%.

For the compound `Cc1ccc(C)c(NP(C)(=O)Oc2ccccc2)c1` (configuration not stated), the activity change, negative = inhibition was inactive: -2.27%.

`CCCOc1ccc(NP(C)(=O)Oc2ccc(Cl)cc2)cc1` (configuration not stated): the activity change, negative = inhibition is inactive: -2.94%.

As for `CP(=O)(Nc1ccc(SC(F)(F)F)cc1)Oc1ccccc1` (configuration not stated), the activity change, negative = inhibition is inactive: -1.56%.

As for `COc1ccccc1OP(C)(=O)Nc1c(C)cccc1C` (configuration not stated), the activity change, negative = inhibition was inactive: -5.29%.

As for `CN1CCCCC1COC(=O)C1(O)c2ccccc2CCc2ccccc21` (configuration not stated), the activity change, negative = inhibition was inactive: -23.9%.

On to `COc1ccccc1OP(C)(=O)Nc1ccccc1` (configuration not stated), for which the activity change, negative = inhibition is inactive: -2.43%.

On to `CP(=O)(Nc1ccccc1Br)Oc1ccccc1` (configuration not stated), for which the activity change, negative = inhibition is inactive: 6.7%.

Turning to `CP(=S)(Nn1cnnc1)Oc1ccccc1` (configuration not stated), the activity change, negative = inhibition is inactive: -7.74%.

Take `Cc1cc(C)cc(OP(C)(=O)Nc2ccc(SC(F)(F)F)cc2)c1` (configuration not stated): the activity change, negative = inhibition was inactive: 5.73%.

Regarding `CP(=O)(NC(=O)Nc1ccccc1)Oc1ccccc1` (configuration not stated), the activity change, negative = inhibition is inactive: -6.99%.

Consider `CP(=O)(Oc1ccccc1)OC(c1ccccc1)C(F)(F)F` (configuration not stated), for which the activity change, negative = inhibition is inactive: 2.27%.

On to `Cc1cccc(C)c1OP(C)(=O)Nc1ccc(SC(F)(F)F)cc1` (configuration not stated), for which the activity change, negative = inhibition was inactive: -4.5%.

For `CP(=O)(Nc1ccc(SC(F)(F)F)cc1)Oc1ccc(Cl)cc1` (configuration not stated), the activity change, negative = inhibition was inactive: 6.88%.

With `CP(=O)(Nc1ccccn1)Oc1ccc(Cl)cc1` (configuration not stated), the activity change, negative = inhibition was inactive: -5.98%.

Turning to `CCOP(C)(=S)SCC(=O)NC(C)C(=O)O` (configuration not stated), the activity change, negative = inhibition is inactive: -9.98%.

In the case of `CCOC(=O)c1ccc(NP(C)(=O)Oc2ccc(OC)cc2)cc1` (configuration not stated), the activity change, negative = inhibition is inactive: -10.8%.

Consider `CCN(CC)CCCOC(=O)C(O)(c1ccccc1)c1ccccc1`, for which the activity change, negative = inhibition was inactive: 1.46%.

Consider `Cc1cccc(C)c1OP(C)(N)=O` (configuration not stated), for which the activity change, negative = inhibition is inactive: -4.73%.

With `COc1ccc(OP(C)(=O)Nc2cccc(F)c2)cc1` (configuration not stated), the activity change, negative = inhibition is inactive: 0.321%.

As for `COc1ccccc1OP(C)(=O)Nc1cc(Cl)ccc1C` (configuration not stated), the activity change, negative = inhibition was inactive: -1.92%.

`Cc1cc(C)cc(OP(C)(N)=O)c1` (configuration not stated): the activity change, negative = inhibition is inactive: -8.47%.

`CCOC(=O)c1ccc(NP(C)(=O)Oc2ccccc2)cc1` (configuration not stated): the activity change, negative = inhibition was inactive: -10.7%.

Consider `COc1ccccc1OP(C)(=O)Nc1ccc(C)cc1` (configuration not stated), for which the activity change, negative = inhibition is inactive: 8.5%.

In the case of `COc1ccccc1OP(C)(=O)Nc1ccc(C)c(C)c1` (configuration not stated), the activity change, negative = inhibition was inactive: 23.8%.

In the case of `Cc1cc(C)cc(OP(C)(=O)Nc2cccc(C(F)(F)F)c2)c1` (configuration not stated), the activity change, negative = inhibition was inactive: -1.57%.

On to `CP(=O)(Nc1ccc(Cl)cc1Cl)Oc1ccccc1` (configuration not stated), for which the activity change, negative = inhibition is inactive: 3.54%.

For the compound `CP(=O)(OCCOc1ccccc1)OCCOc1ccccc1`, the activity change, negative = inhibition is inactive: -4.23%.

Regarding `CN(C)CCOC(=O)C(O)(c1ccccc1)C1CCCC1` (configuration not stated), the activity change, negative = inhibition was inactive: -5.23%.

`COc1ccc(OP(C)(=O)Nc2ccccn2)cc1` (configuration not stated): the activity change, negative = inhibition was inactive: -12.9%.

For `COc1ccccc1OP(C)(=O)Nc1ccc(Br)cc1` (configuration not stated), the activity change, negative = inhibition is inactive: 0.715%.

With `CCc1ccc(OP(C)(=O)O)cc1`, the activity change, negative = inhibition is inactive: -8.41%.

Take `COc1ccccc1OP(C)(=O)Nc1ccc(C)cc1C` (configuration not stated): the activity change, negative = inhibition was inactive: -5.92%.

On to `CP(=O)(Nc1ccccn1)Oc1ccccc1` (configuration not stated), for which the activity change, negative = inhibition was inactive: -3.89%.

Regarding `Cc1c(NP(C)(=O)Oc2ccc(C(C)C)cc2)c(=O)n(-c2ccccc2)n1C` (configuration not stated), the activity change, negative = inhibition is inactive: -22%.

In the case of `CCc1ccc(OP(C)(=O)Nc2cccnc2)cc1` (configuration not stated), the activity change, negative = inhibition is inactive: -1.97%.

For `CP(=O)(Oc1ccccc1)N1CCOC1=O` (configuration not stated), the activity change, negative = inhibition is inactive: -2.89%.

For the compound `O=C(OCCCN1CCCC1)C(O)(c1ccccc1)C1CCCCC1` (configuration not stated), the activity change, negative = inhibition was inactive: -6.37%.

Regarding `COc1ccccc1OP(C)(=O)Nc1c(C)n(C)n(-c2ccccc2)c1=O` (configuration not stated), the activity change, negative = inhibition is inactive: -2.73%.

As to `CCN(CC)CC(O)COC(=O)C(O)(c1ccccc1)C1CCCCC1` (configuration not stated), the activity change, negative = inhibition is inactive: -3.27%.

`CP(=O)(Nc1ccc(Cl)cc1)Oc1ccc(F)cc1` (configuration not stated): the activity change, negative = inhibition is inactive: -11.2%.

Turning to `COc1ccccc1OP(C)(=O)Nc1ccccc1Br` (configuration not stated), the activity change, negative = inhibition is inactive: -6.28%.

Turning to `CC(C)(C)c1ccc(OP(C)(=O)O)cc1`, the activity change, negative = inhibition is inactive: 1.41%.

In the case of `CP(=O)(OC12CC3CC(CC(C3)C1)C2)OC12CC3CC(CC(C3)C1)C2`, the activity change, negative = inhibition was inactive: -1.1%.

As for `CCOC(=O)c1ccc(NP(C)(=O)Oc2ccc(Cl)cc2)cc1` (configuration not stated), the activity change, negative = inhibition is inactive: -10.7%.

As to `COc1ccc(NP(C)(=O)Oc2ccccc2OC)cc1` (configuration not stated), the activity change, negative = inhibition is inactive: -8.2%.

Regarding `CN(C)CCOC(=O)C(O)(c1ccccc1)C1CCCCC1` (configuration not stated), the activity change, negative = inhibition was inactive: 4.09%.

With `COc1ccc(OP(C)(=O)Nc2cccc(Br)c2)cc1` (configuration not stated), the activity change, negative = inhibition is inactive: -3.55%.

Turning to `CCOP(C)(=S)SCC(=O)NC(C)(CC)C(=O)O` (configuration not stated), the activity change, negative = inhibition was inactive: -2.86%.

`CP(=O)(Nc1ccc(SC(F)(F)F)cc1)Oc1ccc(F)cc1` (configuration not stated): the activity change, negative = inhibition is inactive: -3.66%.

`Cc1ccccc1NP(C)(=O)Nc1ccccc1C`: the activity change, negative = inhibition is inactive: 3.22%.

For the compound `CP(=O)(Nc1ccc2c(c1)OCCO2)Oc1ccccc1` (configuration not stated), the activity change, negative = inhibition was inactive: -13.3%.

With `CC(C)c1ccc(OP(C)(=O)Nc2ccc(SC(F)(F)F)cc2)cc1` (configuration not stated), the activity change, negative = inhibition is inactive: 1.73%.

As for `CP(=O)(Nc1ccccc1F)Oc1ccccc1` (configuration not stated), the activity change, negative = inhibition is inactive: 0.332%.

As for `COc1ccc(OP(C)(=O)Nc2ccc(SC(F)(F)F)cc2)cc1` (configuration not stated), the activity change, negative = inhibition was inactive: -12.7%.

As to `CCOC(=O)c1ccc(NP(C)(=O)Oc2ccc(F)cc2)cc1` (configuration not stated), the activity change, negative = inhibition is inactive: -11.6% [at 11.5 µM].

For `CCCCCOc1ccc(NP(C)(=O)Oc2ccc(Cl)cc2Cl)cc1` (configuration not stated), the activity change, negative = inhibition is inactive: -5.21%.

For `CP(=O)(Nc1ccccc1)Oc1ccc(F)cc1` (configuration not stated), the activity change, negative = inhibition was inactive: 1.07%.

Take `CCN(CC)CCCOC(=O)C(O)(c1ccccc1)C1CCCCC1` (configuration not stated): the activity change, negative = inhibition is inactive: -3%.
